Assay [1] has as its target T1, human GIPR (Homo sapiens, UniProt P48546).
T1 construct: expressed in transfected cells; host or cells: CHO-K1 (CRE-LUC/CHO-K1 reporter cell; hGIPR/CRE-LUC/CHO-K1 line)
T1 sequence (P48546 22-466): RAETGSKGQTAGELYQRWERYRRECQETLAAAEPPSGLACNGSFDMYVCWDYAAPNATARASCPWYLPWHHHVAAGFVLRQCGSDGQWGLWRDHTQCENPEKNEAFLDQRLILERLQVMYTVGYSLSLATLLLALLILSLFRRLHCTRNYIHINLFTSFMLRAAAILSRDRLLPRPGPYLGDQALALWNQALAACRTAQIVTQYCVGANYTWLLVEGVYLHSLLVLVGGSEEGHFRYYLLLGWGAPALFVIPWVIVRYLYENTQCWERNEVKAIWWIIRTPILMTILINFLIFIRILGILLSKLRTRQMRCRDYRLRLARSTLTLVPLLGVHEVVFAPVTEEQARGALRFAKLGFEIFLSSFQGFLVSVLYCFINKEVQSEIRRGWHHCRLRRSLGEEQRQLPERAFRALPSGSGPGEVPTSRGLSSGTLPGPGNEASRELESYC
In words: Binding activity to human GIPR using [125I]-GIP (GIPR_VLP). Conditions: [125I]GIP 100 pM, room temperature 2 hours. The protocol:
The GF/C glass fiber filter 96-well plate in which VLP was trapped was dried at 42° C. overnight. Thereafter, MicroScint-O (PerkinElmer 6013611) was added to the GF/C glass fiber filter 96-well plate sealed using a backseal and the plate was sealed using a topseal.

Protein sequences, listed by entry. Tags and fused reporters are not part of them. Residues count along the entry.
UniProt P43220, 24-463: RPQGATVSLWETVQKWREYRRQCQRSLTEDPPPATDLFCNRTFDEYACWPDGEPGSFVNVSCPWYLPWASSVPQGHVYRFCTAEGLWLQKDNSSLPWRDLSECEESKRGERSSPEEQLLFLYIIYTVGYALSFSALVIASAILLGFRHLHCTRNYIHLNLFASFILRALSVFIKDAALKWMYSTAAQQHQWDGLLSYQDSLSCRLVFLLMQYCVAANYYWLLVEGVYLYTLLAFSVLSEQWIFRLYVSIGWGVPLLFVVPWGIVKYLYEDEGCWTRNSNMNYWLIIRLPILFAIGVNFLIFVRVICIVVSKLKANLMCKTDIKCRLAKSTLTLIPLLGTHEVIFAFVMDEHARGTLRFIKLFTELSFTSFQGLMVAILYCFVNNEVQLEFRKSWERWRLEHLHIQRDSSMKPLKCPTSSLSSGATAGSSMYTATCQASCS

The target in assay [2] is T1, human GIPR. The assay is described as follows: Agonist activity on human GIPR, CRE-luciferase reporter assay with increase in intracellular cAMP as indicator. It counts as cell-based. As to conditions: hGIPR/CRE-LUC/CHO-K1 cells, 4 hours incubation, 10 nM GIP = 100%. The protocol:
(2) Construction of Reporter Plasmid Expressing Cell
(4) Transfer of Human GIPR Gene to CRE-LUC/CHO-K1 Cell and Obtaining of Expressing Cell
Subsequently, the cell line inducing the luciferase expression, hGIPR/CRE-LUC/CHO-K1 cell, was selected from the obtained transformant by adding GIP.
(§1) Steady-Glo (Promega) was added in amounts of 30 μL and shaken under light shielding. 20 Minutes later, luciferase activity was measured using a plate reader Envision (PerkinElmer).
(A reporter such as luciferase makes a cellular process visible.)

In assay [3] the target is T2, human GLP-1R (Homo sapiens, UniProt P43220).
T2 construct: expressed in transfected cells; host or cells: CHO-K1 (hGLP-1R/CRE-luc/CHO-K1 line)
In words: Agonist activity on human GLP-1R, CRE-luciferase reporter assay with increase in intracellular cAMP as indicator. It counts as cell-based. Conditions: hGLP-1R/CRE-luc/CHO-K1 cells, 4 hours incubation, 10 nM GLP-1 = 100%.
Excerpt: (3) Construction of Reporter Plasmid
(5) Construction of Expression Plasmid of Human GLP-1R Gene
(6) Transfer of Human GLP-1R Gene and Reporter Plasmid to CHO-K1 Cell and Obtaining of Expressing Cell
The Cre-luc (Zeo) obtained in (3) and the plasmid hGLP-1/pIRESneo3 obtained in (5) were transferred to the CHO-K1 cell to obtain a transformant. Subsequently, the cell line inducing the luciferase expression, hGLP-1R/CRE-luc/CHO-K1 cell, was selected from the obtained transformant by adding GLP-1.
as §1

The term IC50 denotes the concentration that inhibits the measured activity by half. Lower therefore signals greater potency in that assay. One may read the EC50 as the concentration that produces a half-maximal response. Lower therefore signals higher potency in that assay. “Me-Tyr-Aib-Glu-Gly-Thr-Iva-Ile-Ser-Asp-Tyr-Ser-Ile-Aib-Lys(Eda-GGGGG-)-Asp-Arg-Aib-Ala-Gln-Aib-Asn-Phe-Val-Asn-Trp-Iva-Leu-Ala-Gln-Arg-Pro-Ser-Ser-Gly-Ala-Pro-Pro-Pro-Ser-Arg-NH2 [Compound 473]”: the IC50 in assay [1] was determined as 6.8 nM. Besides, the results for the EC50 in assay [2] and in assay [3] were 0.032 nM and more than 1000 nM, respectively.
The corresponding values for “Me-Tyr-Aib-Glu-Gly-Thr-Iva-Ile-Ser-Asp-Tyr-Ser-Ile-Aib-Lys(Eda-GGGGG-)-Asp-Arg-Aib-His-Gln-Aib-Asn-Phe-Val-Asn-Trp-Iva-Leu-Ala-Gln-Arg-Pro-Ser-Ser-Gly-Ala-Pro-Pro-Pro-Ser-NH2 [Compound 475]” are 8.9 nM, 0.042 nM and more than 1000 nM.
In the case of “Me-Tyr-Aib-Glu-Gly-Thr-Iva-Ile-Ser-Asp-Tyr-Ser-Ile-Aib-Lys(Eda-GGGGGG-)-Asp-Arg-Aib-Ala-Gln-Aib-Asn-Phe-Val-Asn-Trp-Iva-Leu-Ala-Gln-Arg-Pro-Ser-Ser-Gly-Ala-Pro-Pro-Pro-Ser-Arg-NH2 [Compound 520]”, the IC50 in assay [1] is 18 nM. Also, the EC50 in assay [2] is 0.056 nM; in assay [3] it was more than 1000 nM.
The corresponding values for “Me-Tyr-Aib-Glu-Gly-Thr-Iva-Ile-Ser-Asp-Tyr-Ser-Ile-Aib-Lys(Eda-GGGGGG-)-Asp-Arg-Aib-Ala-Gln-Aib-Asn-Phe-Val-Asn-Trp-Iva-Leu-Ala-Gln-Arg-Pro-Ser-Ser-Gly-Ala-Pro-Pro-Pro-Ser-NH2 [Compound 342]” are 13 nM, 0.045 nM and more than 1000 nM.
The corresponding values for “Me-Tyr-Aib-Glu-Gly-Thr-Iva-Ile-Ser-Asp-Tyr-Ser-Ile-Aib-Lys(Eda-GGGGGG-)-Asp-Arg-Aib-His-Gln-Aib-Asn-Phe-Val-Asn-Trp-Iva-Leu-Ala-Gln-Arg-Pro-Ser-Ser-Gly-Ala-Pro-Pro-Pro-Ser-NH2 [Compound 521]” are 20 nM, 0.054 nM and more than 1000 nM.
The corresponding values for “Me-Tyr-Aib-Glu-Gly-Thr-Iva-Ile-Ser-Asp-Tyr-Ser-Ile-Aib-Lys(Hda-GGGGG-)-Asp-Arg-Aib-Ala-Gln-Aib-Asn-Phe-Val-Asn-Trp-Iva-Leu-Ala-Gln-Arg-Pro-Ser-Ser-Gly-Ala-Pro-Pro-Pro-Ser-NH2 [Compound 459]” are 1.7 nM, 0.0027 nM and more than 1000 nM.
As to “Me-Tyr-Aib-Glu-Gly-Thr-Iva-Ile-Ser-Asp-Tyr-Ser-Ile-Aib-Lys(Heda-GGGGG-)-Asp-Arg-Aib-Ala-Gln-Aib-Asn-Phe-Val-Asn-Trp-Iva-Leu-Ala-Gln-Arg-Pro-Ser-Ser-Gly-Ala-Pro-Pro-Pro-Ser-NH2 [Compound 445]”, the IC50 in assay [1] turned out to be 0.92 nM. Moreover, the figures for the EC50 in assay [2] and in assay [3] were 0.0056 nM and more than 1000 nM, respectively.
Take “Me-Tyr-Aib-Glu-Gly-Thr-Iva-Ile-Ser-Asp-Tyr-Ser-Ile-Aib-Lys(Heda-GGGGG-)-Asp-Arg-Aib-His-Gln-Aib-Asn-Phe-Val-Asn-Trp-Iva-Leu-Ala-Gln-Arg-Pro-Ser-Ser-Gly-Ala-Pro-Pro-Pro-Ser-NH2 [Compound 507]”: in assay [1], the IC50 came out at 5.4 nM. For the same substance, the EC50 in assay [2] is 0.0068 nM; in assay [3] it was more than 1000 nM.
The corresponding values for “Me-Tyr-Aib-Glu-Gly-Thr-Iva-Ile-Ser-Asp-Tyr-Ser-Ile-Aib-Lys(Heda-GGGGGG-)-Asp-Arg-Aib-Ala-Gln-Aib-Asn-Phe-Val-Asn-Trp-Iva-Leu-Ala-Gln-Arg-Pro-Ser-Ser-Gly-Ala-Pro-Pro-Pro-Ser-NH2 [Compound 457]” are 1.4 nM, 0.0026 nM and more than 1000 nM.
As to “Me-Tyr-Aib-Glu-Gly-Thr-Iva-Ile-Ser-Asp-Tyr-Ser-Ile-Aib-Lys(Heda-GGGGGG-)-Asp-Arg-Aib-His-Gln-Aib-Asn-Phe-Val-Asn-Trp-Iva-Leu-Ala-Gln-Arg-Pro-Ser-Ser-Gly-Ala-Pro-Pro-Pro-Ser-NH2 [Compound 509]”, the IC50 in assay [1] came to 7.3 nM. In addition, the 50% effective concentration (EC50) in assay [2] is 0.011 nM; in assay [3], more than 1000 nM.
The corresponding values for “Me-Tyr-Aib-Glu-Gly-Thr-Iva-Ile-Ser-Asp-Tyr-Ser-Ile-Aib-Lys(Hepda-GGGGG-)-Asp-Arg-Aib-Ala-Gln-Aib-Asn-Phe-Val-Asn-Trp-Iva-Leu-Ala-Gln-Arg-Pro-Ser-Ser-Gly-Ala-Pro-Pro-Pro-Ser-NH2 [Compound 465]” are 2.2 nM, 0.0056 nM and more than 1000 nM.
The corresponding values for “Me-Tyr-Aib-Glu-Gly-Thr-Iva-Ile-Ser-Asp-Tyr-Ser-Ile-Aib-Lys(Hepda-GGGGG-)-Asp-Arg-Aib-His-Gln-Aib-Asn-Phe-Val-Asn-Trp-Iva-Leu-Ala-Gln-Arg-Pro-Ser-Ser-Gly-Ala-Pro-Pro-Pro-Ser-NH2 [Compound 508]” are 9.1 nM, 0.018 nM and more than 1000 nM.
The corresponding values for “Me-Tyr-Aib-Glu-Gly-Thr-Iva-Ile-Ser-Asp-Tyr-Ser-Ile-Aib-Lys(Hepda-GGGGGG-)-Asp-Arg-Aib-Ala-Gln-Aib-Asn-Phe-Val-Asn-Trp-Iva-Leu-Ala-Gln-Arg-Pro-Ser-Ser-Gly-Ala-Pro-Pro-Pro-Ser-Arg-NH2 [Compound 506]” are 5.3 nM, 0.012 nM and more than 1000 nM.
In assay [1], “Me-Tyr-Aib-Glu-Gly-Thr-Iva-Ile-Ser-Asp-Tyr-Ser-Ile-Aib-Lys(Hepda-GGGGGG-)-Asp-Arg-Aib-Ala-Gln-Aib-Asn-Phe-Val-Asn-Trp-Iva-Leu-Ala-Gln-Arg-Pro-Ser-Ser-Gly-Ala-Pro-Pro-Pro-Ser-NH2 [Compound 466]” showed an IC50 of 1.8 nM. The values for the EC50 in assay [2] and in assay [3] were 0.0061 nM and more than 1000 nM, respectively.
The corresponding values for “Me-Tyr-Aib-Glu-Gly-Thr-Iva-Ile-Ser-Asp-Tyr-Ser-Ile-Aib-Lys(Hepda-GGGGGG-)-Asp-Arg-Aib-His-Gln-Aib-Asn-Phe-Val-Asn-Trp-Iva-Leu-Ala-Gln-Arg-Pro-Ser-Ser-Gly-Ala-Pro-Pro-Pro-Ser-Arg-NH2 [Compound 514]” are 12 nM, 0.024 nM and more than 1000 nM.
The corresponding values for “Me-Tyr-Aib-Glu-Gly-Thr-Iva-Ile-Ser-Asp-Tyr-Ser-Ile-Aib-Lys(Hepda-GGGGGG-)-Asp-Arg-Aib-His-Gln-Aib-Asn-Phe-Val-Asn-Trp-Iva-Leu-Ala-Gln-Arg-Pro-Ser-Ser-Gly-Ala-Pro-Pro-Pro-Ser-NH2 [Compound 510]” are 12 nM, 0.018 nM and more than 1000 nM.
The corresponding values for “Me-Tyr-Aib-Glu-Gly-Thr-Iva-Ile-Ser-Asp-Tyr-Ser-Ile-Aib-Lys(Oda-GGGGGG-)-Asp-Arg-Aib-Ala-Gln-Aib-Asn-Phe-Val-Asn-Trp-Iva-Leu-Ala-Gln-Arg-Pro-Ser-Ser-Gly-Ala-Pro-Pro-Pro-Ser-Arg-NH2 [Compound 479]” are 4.6 nM, 0.014 nM and more than 1000 nM.
“Me-Tyr-Aib-Glu-Gly-Thr-Iva-Ile-Ser-Asp-Tyr-Ser-Ile-Aib-Lys(Oda-GGGGGG-)-Asp-Arg-Aib-Ala-Gln-Aib-Asn-Phe-Val-Asn-Trp-Iva-Leu-Ala-Gln-Arg-Pro-Ser-Ser-Gly-Ala-Pro-Pro-Pro-Ser-NH2 [Compound 439]” came in with a half-inhibitory concentration (IC50) in assay [1] of 3.1 nM. Further, the EC50 was 0.016 nM in assay [2] and more than 1000 nM in assay [3].

The record behind these values is US11174301B2 (Takeda Pharmaceutical Company Limited, priority 2017, dated 2021).
